The subject of test [1] is T-24. The test can be described thus: Induction of apoptosis in human T-24 cells assessed as necrotic cells at 3 uM in presence of vZAD incubated for 8 hrs by annexin V-FITC and PI staining based flow cytometry analysis (reference value: 0.84 %). The format is functional. In general terms: In flow cytometry, cells or beads pass a laser one at a time.
The nature of test [2]: Selectivity index, ratio of IC50 for cytotoxicity against human HCV-29 cells to IC50 for cytotoxicity against human T-24 cells. The method, boiled down:
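SI is the ratio of IC50 in the non-tumoral cell line to IC50 in the tumoral T24 line, both from proliferation-inhibition assays.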

In test [3] the test system is T-24. The test can be described thus: Induction of apoptosis in human T-24 cells assessed as late apoptotic cells at 3 uM in presence of vZAD incubated for 8 hrs by annexin V-FITC and PI staining based flow cytometry analysis (reference value: 1.71 %). The format is functional.

With `Nc1ccn([C@@H]2O[C@H](CO)[C@@H](O)C2(F)F)c(=O)n1` [GEMCITABINE], the figures for the Activity with T-24 [1] and in the test on T-24 [3] were 3.92% and 5.25%, respectively. Also, the “Ratio IC50” value in test [2] was 2.12.

Source of the values: ChEMBL document CHEMBL4765435, “Synthesis and in vitro anti-bladder cancer activity evaluation of quinazolinyl-arylurea derivatives” (Eur J Med Chem, 2020).
